# The list shows a part of the results, in another mix than the full data. Calls of active or inactive are those of the source. Cut-off read from the data, not from the text of the source: active = activity change below about -30%; inactive = the rest, inconclusive results apart.
# Assay: qHTS Assay for Inhibitors of Fructose-1,6-bisphosphate Aldolase from Giardia Lamblia: Coupling assay counterscreen
# Settings: coupling enzyme system counterscreen, AmpLite Red fluorescence; at 58.2 µM (top of the series)
# From the text: MLPCN Grant: MH085699-01 Assay Provider: Osnat Herzberg, University of Maryland NCGC Assay Overview: The objective of this project is to obtain compounds that inhibit Giardia lamblia growth. G. lamblia is a human pathogen which afflicts impoverished nations; it is the most common cause of outbreaks of diarrhea in the United States. During the course of our study of potential drug targets in Giardia, we have identified the Class II (Zn2+ functions in electrophilic catalysis) fructose-1,6-bisphosphate aldolase (FBPA) as an excellent candidate for drug targeting. FBPA is a key glycolytic pathway enzyme, essential for G. lamblia survival. The human FBPA belongs to the Class I aldolases, which have a different substrate binding site structure and a radically different catalytic mechanism (employing a lysine-Schiff base intermediate). Therefore, affinity-based or mechanism-based inhibitors of the Giardia FBPA are expected not to interfere with the catalytic function of the human FBPA. […] This was done by coupling it to a diaphorase/resazurin/resorufin reaction that can be monitored by fluorescence (excitation, 544 nm; emission, 590 nm). Compounds identified in this screen will be further evaluated by coupling the […]/triose phosphate isomerase/NADH assay to a phenazine methosulfate/tetranitroblue tetrazolium color reaction. […]
# % is set by controls: 0 for no effect and ±100 for the full control effect.
row,SMILES,"activity change, negative = inhibition"
1,CN(CCCl)CCCl,inactive: -1.3%

# Reference: PubChem BioAssay AID2472 (National Center for Advancing Translational Sciences (NCATS), 2010)
